Laboratory results taken from patent publication US20090275529A1, “METHOD FOR IMPROVING CARDIOVASCULAR RISK PROFILE OF COX INHIBITORS” (priority 2008, published 2009).

System: ABCA1 message in THP-1 cells
Assay: ABCA1 message by RT-PCR and gel densitometry (celecoxib example, COX-2 silencing)
Format: cell-based, human
Settings: 50 μM, 18 h

## Cc1ccc(-c2cc(C(F)(F)F)nn2-c2ccc(S(N)(=O)=O)cc2)cc1 [Celecoxib, celecoxib]
  decrease in ABCA1 message vs. control: 65.1%±1.5
